## Binding of CDR-mutated scFvs to a peptide of the spike HR2 region

Values reported by Engelhart et al. 2022, doi:10.1038/s41597-022-01779-4 (FLAb copy).

The target is the same throughout: PDVDLGDISGINAS, from the HR2 region of SARS-CoV-2 spike.

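The parent was found by panning a naive human phage display library on the peptide. Library AAYL52 holds single substitutions and randomly drawn double and triple substitutions in the CDRs. The assay is AlphaSeq: two haploid yeast populations carry antibody and antigen on their surface. Pairs that bind mate more often; barcode pairs of the diploids are counted by sequencing. Scores were corrected for input abundance and mapped to Kd with protein pairs of known affinity run in the same pool. Mating was done three times.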

Each scFv is VH, a 15-residue (Gly4Ser)3 linker, VL, as in the parent Ab-95, and differs from it in the CDRs of the light chain only.
VH: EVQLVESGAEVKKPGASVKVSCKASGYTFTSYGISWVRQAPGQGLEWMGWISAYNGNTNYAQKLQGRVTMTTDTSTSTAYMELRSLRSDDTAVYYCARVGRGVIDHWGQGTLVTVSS
VL: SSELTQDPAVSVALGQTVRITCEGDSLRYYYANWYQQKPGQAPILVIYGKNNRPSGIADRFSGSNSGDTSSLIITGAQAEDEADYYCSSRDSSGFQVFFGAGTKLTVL

Positions count from residue 1 of the parent VL; N51T puts T in place of N. Scale: log10 of Kd in nM, estimated from mating counts; low values are strong binders. "nd" marks a missing value. The strain was present, yet no cells mated with the target were sequenced in that replicate, which points to weak or no binding.

changes	log10 Kd, replicates	signal with controls
N51T+S92H	nd nd nd	1/9 (2.35)
P54N+Q96P+V97L	2.30 3.11 2.72	4/9 (3.43)
R28C+Y30E	1.81 1.82 1.37	4/9 (3.54)
R28C+R53C+D91E	nd nd nd	1/9 (4.19)
N52G+R90A	3.07 2.52 2.57	4/9 (3.31)
D25S+G49Q+K50S	nd 4.18 3.67	3/9 (4.11)
A32R+R53E	5.20 nd nd	4/9 (3.45)
G24N+S55Y+S89T	3.19 4.08 nd	2/9 (3.85)
G49H+K50P+S88C	nd 4.53 3.71	4/9 (4.25)
L27A+G49K+N51L	nd nd nd	2/9 (3.93)
G24A+A32M	3.07 3.12 3.13	1/9 (3.75)
Y29A+G49T+F98P	2.79 4.00 3.76	1/9 (3.53)
N33Y+K50S+S88A	nd nd nd	5/9 (4.16)
K50A+F98E	3.03 2.30 1.39	3/9 (3.43)
E23A+Y30H+Y31N	1.24 1.37 0.58	1/9 (5.17)
Y31V+G94I+V97N	nd nd nd	0/9
L27H+R28Y+S92P	4.11 4.17 4.22	6/9 (3.84)
S89G	2.09 2.10 2.22	1/9 (3.72)
S26Y+Y30V+S55H	3.42 2.04 2.11	2/9 (3.74)
S26F	nd 3.24 nd	3/9 (3.42)
G24K+Y29P	nd 4.38 nd	1/9 (3.94)
R28N+N52R+V97W	3.33 4.00 3.32	1/9 (3.86)
N33A+S55W+G94R	3.85 3.25 3.81	5/9 (3.86)
G49D+P54D+S55N	3.28 3.59 2.72	5/9 (4.16)
G24S+A32Y+G94W	4.62 5.91 3.71	5/9 (3.32)
G24Y+S55M+S92G	nd nd nd	0/9
S55L+Q96Y	3.53 5.23 nd	5/9 (3.55)
Y29K+S88M+D91P	2.33 2.22 2.06	5/9 (4.71)
Y31M+S93A	1.93 1.59 1.65	4/9 (3.82)
N33H+G94W+F98E	3.74 nd 4.16	2/9 (3.90)
A32Q+S93G+G94N	nd nd nd	2/9 (3.68)
Y29S+R53Q+S93V	4.72 nd nd	3/9 (4.35)
N52V+S92C+F98W	2.30 2.38 2.40	3/9 (4.53)
G24S+Y31R+Q96F	3.19 3.41 nd	4/9 (3.93)
Y31M+N51K+N52G	2.93 3.68 3.03	4/9 (3.79)
L27T+R53H+R90P	nd nd nd	1/9 (4.17)
D25G+Y30N+S93I	1.41 1.40 1.12	3/9 (3.74)
N51F+S88C+D91F	4.41 3.13 nd	6/9 (4.06)
A32L+G49K+F98N	nd nd nd	0/9
S26N+Y30S+V97D	2.79 2.25 1.56	5/9 (3.64)
R28N+P54D+R90D	2.41 3.38 3.32	1/9 (4.56)
Y29R+A32E+R53A	nd nd nd	2/9 (3.46)
R28A+A32G+N33H	4.08 3.79 3.27	4/9 (3.65)

Picked from the list: the 3 lowest averages where every replicate gave a value.

changes	log10 Kd, replicates	signal with controls
E23A+Y30H+Y31N	1.24 1.37 0.58	1/9 (5.17)
D25G+Y30N+S93I	1.41 1.40 1.12	3/9 (3.74)
R28C+Y30E	1.81 1.82 1.37	4/9 (3.54)

For reference, the parent read 2.31 as the reference entry and 2.25 as a member of this library. Nonspecific signal, from three strains lacking the peptide, appeared in 28% of pairings of library AAYL52, centred on 3.91 (5% of these signals below 2.90); values are not corrected for it. Also given: how often the same scFv was detected with the empty control strains, with their mean in brackets.